High-throughput results as filed in PubChem.
miR-21 FLuc: raises the signal of a miR-21 reporter | HeLa miR-21 FLuc reporter, luciferase, 48 h | Potency, µM (highest dose often 38.3 µM) | 340,000 tested, under 10 active; active = well fitted rising curve with a large enough effect; inconclusive = small, poorly fitted or top-dose-only effect; inactive = no such curve, though single readings can be large or run the other way;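 note: miR-21 action dims this reporter so a rising signal means less miR-21 action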
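HeLa cells stably expressing CMV-driven firefly luciferase with a downstream miR-21 binding sequence, endogenously expressing miR-21, were treated with titrations (up to about 40uM final) for 48 hours at 37 degree Celsius. Luciferase luminescence was read after lysis.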
Nrf2 inh: inhibitors of Nrf2 signaling; A549 ARE-Fluc reporter, luciferase luminescence, 18-24 h; Potency, µM (highest dose often 46 µM), most hits filed as inhibitors; 360,000 compounds, 2.1% hits; AID 504444; further: nearly all actives have a fitted effect of over 60% in size
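A549 ARE_Fluc cells, 5000/well, 5% FBS OPTI-MEM; compounds in dose-response, 18-24 h at 37 °C/5% CO2; CellTiter-Fluor viability read (Ex 405/Em 525), then BugLite luciferase luminescence = Nrf2 activity.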
IL2 activator: IL-2 activation; IL-2 activation reporter assay, cell-based qHTS; stimulated with anti-CD3/CD4/CD28 beads; in transgenic mouse T cells; 360,000 compounds, 0.065% hits; activation, % (series mostly up to about 46 µM); in the data active means activation above about 50%; inconclusive means mostly about 30% to 49%
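Unstimulated transgenic mouse T cells, 750 per well, received compound and, after 60 minutes, anti-CD3/anti-CD4 bead plus anti-CD28 stimulation. EGFP and DsRed were quantified after 18 hours.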
A549 tox-1: counter-screen for Nrf2 inhibitors: cytotoxicity in A549 cells; 390,000 compounds, 0.16% hits; AID 504648; Potency, µM (series often up to 46 µM), actives largely listed as inhibitors; A549 ARE-Fluc cells, CellTiter-Fluor viability, 18-24 h
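A549 ARE-Fluc cells in 5% FBS OPTI-MEM, 5000 cells/well, rested 2 h then exposed to compounds in concentration-response for 18-24 h at 37 °C. Viability by CellTiter-Fluor fluorescence (Ex 405/Em 525) after 30 min; luciferase luminescence (BugLite, 15 min, RT) read afterwards.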
ClpP mod: qHTS Assay for Activators of ClpP | purified B. subtilis ClpP, FRET peptide cleavage, 20 min | Potency, µM (doses to about 57.5 µM) | 340,000 compounds, 1.9% hits; active means well fitted falling curve with a large enough effect; inconclusive means small, poorly fitted or top-dose-only effect; inactive means no such curve, though single readings can be large or run the other way; further: the source files actives as falling curves though it sought activators and does not explain the sign; nearly all actives have a fitted effect of over 65% in size
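ClpP 10 microg/mL final, pH 8 Tris/KCl buffer with BSA, glycerol, Tween-20; compound pinned in; FRET-FV substrate; RT 20 min; Ex320/Em430; ΔFRET vs ADEP 5.8 microM, DMSO, no enzyme.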
Nrf2 activator: Nrf2 pathway activation. 410,000 compounds, 0.31% hits. AID 624171. AREc32 ARE-luciferase reporter (MCF7-derived line), luminescence, 24 h. Potency, µM (highest dose often 46.1 µM), actives largely listed as activators; further: nearly all actives have a fitted effect of over 65% in size
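For detection, Steady-Glo was added and plates sat 30 min at RT; before that, AREc32_Fluc cells grown overnight in OPTI-MEM/5% FBS had been treated with 23 nL compound for 24 hr at 37 deg C.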
FLuc enzyme inh: counter-screen for Nrf2 inhibitors: firefly luciferase enzyme inhibition. shares compounds with Nrf2 inh. purified firefly luciferase, luminescence inhibition. Potency, µM (series often up to 57.5 µM), actives largely listed as inhibitors. 1,400 compounds, 4% hits. AID 720522; further: nearly all actives have a fitted effect of over 65% in size
A549 tox-2: A549 cytotoxicity, Nrf2 inhibitor counterscreen; Potency, µM (highest dose often 46.1 µM), most hits filed as inhibitors; 1,400 compounds, 2% hits; AID 720523; shares compounds with Nrf2 inh; A549 ARE-Fluc cells, cytotoxicity counterscreen;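 further: cells exposed to compounds for 18 to 24 hours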
Nrf2 ARE inh: reduces Nrf2 ARE reporter signal in A549 cells. Potency, µM (doses to about 46.1 µM), most hits filed as inhibitors. A549 ARE-firefly luciferase reporter, luminescence. shares compounds with Nrf2 inh. 1,400 compounds, 74% hits; further: nearly all actives have a fitted effect of over 65% in size
Each line names hits and unclear results; the compound was inactive in the other large screens (follow-up assays come after a bar, where shown). Most compounds without a hit are left out; they make up all but 3.7% or so of the library. Unless noted, the call rests on the fitted dose curve; in most records, active means well fitted curve in the direction sought with a large enough effect; inconclusive means small, poorly fitted or top-dose-only effect, or another doubt; inactive means no such curve, though single readings can be large; an effect the other way counts as inactive or inconclusive.

Cc1ccc(C(=O)Nc2ccc(C(=O)OCc3cc(=O)n4c5c(sc4n3)CCCC5)cc2)cc1	none (no result: Nrf2 inh, IL2 activator)
COc1cc2c(cc1OC)CN(C(=O)CN1CCN(S(=O)(=O)c3ccccc3Br)CC1)CC2	Nrf2 inh 1.8µM | FLuc enzyme inh inactive | A549 tox-2 inactive | Nrf2 ARE inh inactive
CCCCn1c(=NC(=O)C(C)(C)Oc2ccc(Cl)cc2)c(C(=O)OCC)cc2c(=O)n3ccccc3nc21	none (no result: IL2 activator)
Cc1ccc(S(=O)(=O)n2nc(OC(=O)c3ccccc3F)cc2N)cc1	none
Cc1ccc(C(=O)Oc2cc(N)n(S(=O)(=O)c3ccc(C)cc3)n2)cc1	Nrf2 inh 1.2µM | FLuc enzyme inh inactive | A549 tox-2 inactive | Nrf2 ARE inh 4.6µM
COc1ccc(S(=O)(=O)n2nc(OC(=O)c3ccc(C)cc3)cc2N)cc1	Nrf2 inh 0.58µM | FLuc enzyme inh inactive | A549 tox-2 inactive
COc1ccc(NC(=O)c2ccc3[nH]c(C)cc(=O)c3c2)cc1	Nrf2 inh inconclusive (no result: IL2 activator)
Nc1nc(Cl)nc2c1ncn2[C@H]1C[C@H](O)[C@@H](CO)O1	Nrf2 inh 0.013µM | FLuc enzyme inh inactive | A549 tox-2 inactive | Nrf2 ARE inh 5.8µM
CC(C)Oc1ccccc1C1C=C(C(=O)O)Nc2ncnn21 (stereo unspecified)	none (no result: IL2 activator)
Cn1nc(C(C)(C)C)cc1C(=O)NCc1ccc2c(c1)OCO2	Nrf2 inh 1.8µM | FLuc enzyme inh inactive | A549 tox-2 inactive | Nrf2 ARE inh 3.7µM
Cc1cc(OCC(=O)Nc2ccncc2)ccc1Cl	Nrf2 inh inconclusive
Cc1cc(OCC(=O)Nc2ccncc2)cc(C)c1Br	Nrf2 inh 9.2µM | FLuc enzyme inh inactive | A549 tox-2 inactive | Nrf2 ARE inh 8.2µM
Cc1ccc(-c2onc(C)c2C)cc1S(=O)(=O)N1c2ccccc2CC1C (stereo unspecified)	Nrf2 inh 8.2µM (no result: IL2 activator) | FLuc enzyme inh inactive | A549 tox-2 inactive | Nrf2 ARE inh inconclusive
Cc1ccc(-c2onc(C)c2C)cc1S(=O)(=O)N1CCOc2ccccc21	Nrf2 inh inconclusive
CS(=O)(=O)N1CCCc2cc(C(=O)Nc3cccc(C(F)(F)F)c3)ccc21	miR-21 FLuc inconclusive, Nrf2 inh 9.2µM (no result: IL2 activator) | FLuc enzyme inh inconclusive | A549 tox-2 inactive | Nrf2 ARE inh inconclusive
COc1cccc(NC(=O)c2ccc3c(c2)CCN3S(C)(=O)=O)c1	none
COc1ccc(NC(=O)CSc2nc(-c3cccs3)cc(C(F)(F)F)n2)cc1OC	none (no result: Nrf2 inh, IL2 activator)
CCCNc1nc2c(c(=O)n(C)c(=O)n2C)n1Cc1cccc(C)c1	Nrf2 inh 6.5µM | FLuc enzyme inh inactive | A549 tox-2 inactive | Nrf2 ARE inh 10µM
COc1cccc(Cn2c(NCc3ccco3)nc3c2c(=O)n(C)c(=O)n3C)c1	Nrf2 inh 8.2µM, A549 tox-1 inconclusive | FLuc enzyme inh inactive | A549 tox-2 inactive | Nrf2 ARE inh 6.5µM
CCCNc1nc2c(c(=O)n(C)c(=O)n2C)n1CCC(C)C	Nrf2 inh 9.2µM | FLuc enzyme inh inactive | A549 tox-2 inactive | Nrf2 ARE inh inconclusive
CCCCCCn1c(NCC)nc2c1c(=O)n(C)c(=O)n2C	Nrf2 inh 3.7µM | FLuc enzyme inh inactive | A549 tox-2 inactive | Nrf2 ARE inh 5.8µM
CCCCNc1nc2c(c(=O)n(C)c(=O)n2C)n1CCC	none
CCCNc1nc2c(c(=O)n(C)c(=O)n2C)n1CCCc1ccccc1	Nrf2 inh inconclusive
